Test results published in IntAct's records for PubMed 16938345.

B1: Linker for activation of T-cells family member 1 (Homo sapiens), O43561 (parent)
chain: MEEAILVPCVLGLLLLPILAMLMALCVHCHRLPGSYDSTSSDSLYPRGIQFKRPHTVAPWPPAYPPVTSYPPLSQPDLLPIPRSPQPLGGSHRTPSSRRDSDGANSVASYENEGASGIRGAQAGWGVWGPSWTRLTPVSLPPEPACEDADEDEDDYHNPGYLVVLPDSTPATSTAAPSAPALSTPGIRDSAFSMESIDDYVNVPESGESAEASLDGSREYVNVSQELHPGAAKTEPAALSSQEAEEVEEEGAPDYENLQELN
partner: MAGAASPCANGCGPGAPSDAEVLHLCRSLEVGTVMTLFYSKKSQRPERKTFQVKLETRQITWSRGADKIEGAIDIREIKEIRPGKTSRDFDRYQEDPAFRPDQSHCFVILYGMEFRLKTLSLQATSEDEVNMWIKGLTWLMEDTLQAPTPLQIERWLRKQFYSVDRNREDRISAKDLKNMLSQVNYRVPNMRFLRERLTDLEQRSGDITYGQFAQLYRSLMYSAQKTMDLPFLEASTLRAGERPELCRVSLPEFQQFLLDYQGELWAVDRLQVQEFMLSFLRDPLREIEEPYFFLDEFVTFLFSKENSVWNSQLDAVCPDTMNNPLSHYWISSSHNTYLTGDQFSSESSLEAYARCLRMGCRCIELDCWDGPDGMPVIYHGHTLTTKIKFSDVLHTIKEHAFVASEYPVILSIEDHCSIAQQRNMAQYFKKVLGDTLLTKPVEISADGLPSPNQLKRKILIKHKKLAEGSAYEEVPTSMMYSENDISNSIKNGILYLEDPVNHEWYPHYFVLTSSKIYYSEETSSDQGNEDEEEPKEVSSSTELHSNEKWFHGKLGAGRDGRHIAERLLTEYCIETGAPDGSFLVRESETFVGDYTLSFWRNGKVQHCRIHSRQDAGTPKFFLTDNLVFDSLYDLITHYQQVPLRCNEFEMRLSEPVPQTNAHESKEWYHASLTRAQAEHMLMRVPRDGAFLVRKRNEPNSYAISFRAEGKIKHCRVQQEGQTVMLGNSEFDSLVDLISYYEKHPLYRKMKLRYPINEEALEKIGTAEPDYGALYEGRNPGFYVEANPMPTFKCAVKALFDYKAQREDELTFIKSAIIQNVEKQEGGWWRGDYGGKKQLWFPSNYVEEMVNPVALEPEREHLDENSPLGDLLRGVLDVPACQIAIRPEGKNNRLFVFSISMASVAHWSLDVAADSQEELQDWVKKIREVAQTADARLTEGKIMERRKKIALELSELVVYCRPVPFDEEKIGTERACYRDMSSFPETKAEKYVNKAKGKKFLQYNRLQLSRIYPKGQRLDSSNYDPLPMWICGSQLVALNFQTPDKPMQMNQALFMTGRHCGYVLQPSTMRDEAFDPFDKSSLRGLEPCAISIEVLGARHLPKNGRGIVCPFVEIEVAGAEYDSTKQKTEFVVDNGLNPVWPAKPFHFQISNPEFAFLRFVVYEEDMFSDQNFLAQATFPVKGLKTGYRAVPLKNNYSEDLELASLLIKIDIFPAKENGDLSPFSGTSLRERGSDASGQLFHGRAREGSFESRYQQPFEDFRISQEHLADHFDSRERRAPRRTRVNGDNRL

Variants of: B1
Conditions: with plcg1_human PLCG1, P19174

effect of a mutation on the interaction | Variant
decreasing interaction | MEEAILVPCVLGLLLLPILAMLMALCVHCHRLPGSYDSTSSDSLYPRGIQFKRPHTVAPWPPAYPPVTSYPPLSQPDLLPIPRSPQPLGGSHRTPSSRRDSDGANSVASYENEGASGIRGAQAGWGVWGPSWTRLTPVSLPPEPACEDADEDEDDYHNPGYLVVLPDSTPATSTAAPSAPALSTPGIRDSAFSMESIDDFVNVPESGESAEASLDGSREFVNVSQELHPGAAKTEPAALSSQEAEEVEEEGAPDYENLQELN [Y200F;Y220F]
